Measurements from ChEMBL document CHEMBL5518175, “Design, synthesis, and biological evaluation of HDAC6 inhibitors targeting L1 loop and serine 531 residue” (Eur J Med Chem, 2024).
The source made the active and inactive calls. No cut-off for these calls is given here.

By UniProt entry, the sequences of proteins in these tests, tags left out.
UniProt Q13547, whole entry: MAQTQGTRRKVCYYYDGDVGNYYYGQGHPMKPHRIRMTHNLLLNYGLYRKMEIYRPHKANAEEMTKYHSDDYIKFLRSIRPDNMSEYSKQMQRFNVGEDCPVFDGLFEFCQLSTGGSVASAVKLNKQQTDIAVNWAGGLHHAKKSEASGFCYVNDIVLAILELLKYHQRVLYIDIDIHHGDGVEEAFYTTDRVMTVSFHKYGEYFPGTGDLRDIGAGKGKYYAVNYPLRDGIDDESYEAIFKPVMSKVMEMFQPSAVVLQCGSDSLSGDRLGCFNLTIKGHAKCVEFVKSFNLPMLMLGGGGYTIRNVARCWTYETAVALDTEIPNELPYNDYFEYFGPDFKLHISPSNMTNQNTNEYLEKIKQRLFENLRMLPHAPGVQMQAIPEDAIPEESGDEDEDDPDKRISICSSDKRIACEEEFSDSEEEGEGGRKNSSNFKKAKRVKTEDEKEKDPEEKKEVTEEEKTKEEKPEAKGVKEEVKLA

Biological target: Histone deacetylase 1 (Homo sapiens, UniProt Q13547)
Assay: Inhibition of HDAC1 in human NCI-H1975 cells assessed as increase in Histone H3 acetylation upto 5 uM incubated for 24 hrs by Western blotting analysis
Format: cell-based

inhibition: inactive
SMILES: O=C(NO)c1ccc(CN(Cc2ccccc2)C(=O)c2ccccc2)cc1
